Results from US20260041702A1.

Sequences of proteins named here, by UniProt entry; tags and fusion partners are left off.
UniProt P02786, whole entry: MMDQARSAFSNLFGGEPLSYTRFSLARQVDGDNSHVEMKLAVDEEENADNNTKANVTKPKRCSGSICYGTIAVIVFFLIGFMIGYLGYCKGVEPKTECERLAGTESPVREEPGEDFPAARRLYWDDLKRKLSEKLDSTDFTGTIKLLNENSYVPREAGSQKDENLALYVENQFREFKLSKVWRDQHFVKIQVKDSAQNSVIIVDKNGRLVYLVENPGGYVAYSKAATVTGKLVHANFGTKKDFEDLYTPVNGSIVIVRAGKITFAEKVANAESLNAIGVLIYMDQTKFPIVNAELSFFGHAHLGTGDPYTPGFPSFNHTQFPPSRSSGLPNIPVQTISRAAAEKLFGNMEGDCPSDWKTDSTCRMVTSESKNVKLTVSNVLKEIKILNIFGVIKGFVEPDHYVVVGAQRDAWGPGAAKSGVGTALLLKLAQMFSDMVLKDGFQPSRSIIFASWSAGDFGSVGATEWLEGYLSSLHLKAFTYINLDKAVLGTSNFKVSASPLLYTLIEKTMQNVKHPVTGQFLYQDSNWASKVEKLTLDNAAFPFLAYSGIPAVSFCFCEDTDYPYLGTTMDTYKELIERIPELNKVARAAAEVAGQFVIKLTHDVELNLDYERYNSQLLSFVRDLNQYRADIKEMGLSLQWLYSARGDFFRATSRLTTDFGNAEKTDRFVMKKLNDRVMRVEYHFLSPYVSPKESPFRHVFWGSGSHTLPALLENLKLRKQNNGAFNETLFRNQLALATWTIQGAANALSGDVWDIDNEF

Biological target: TRFE receptor, TRF1, on HEK293A cells (human) (UniProt P02786)
Experiment: HATRIC-LRC (LRC-TriCEPS) ligand-receptor capture on HEK293A cells, LC-MS/MS; positive control of the screen

- log 2 (FC), TRFE group against d34CCN2 group (log2 fold change): -3.35
Substance: transferrin (TRFE) coupled to TriCEPS v3.0 (ligand)
